Reference: ChEMBL document CHEMBL1126899, “Nonpeptide angiotensin II antagonists derived from 1H-pyrazole-5-carboxylates and 4-aryl-1H-imidazole-5-carboxylates” (J Med Chem, 1993)

Sequences of proteins named here, by UniProt entry; tags and fusion partners are left off.
UniProt P34976, whole entry: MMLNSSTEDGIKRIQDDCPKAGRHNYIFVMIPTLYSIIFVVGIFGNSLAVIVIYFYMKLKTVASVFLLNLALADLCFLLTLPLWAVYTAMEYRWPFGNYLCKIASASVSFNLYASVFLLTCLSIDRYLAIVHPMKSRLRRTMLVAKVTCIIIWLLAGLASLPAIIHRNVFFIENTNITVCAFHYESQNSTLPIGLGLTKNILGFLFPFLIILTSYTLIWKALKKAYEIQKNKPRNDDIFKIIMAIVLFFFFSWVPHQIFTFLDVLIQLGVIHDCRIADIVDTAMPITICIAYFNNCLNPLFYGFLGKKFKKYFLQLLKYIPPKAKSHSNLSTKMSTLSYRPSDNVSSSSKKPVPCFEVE

Target: Type-1 angiotensin II receptor (Oryctolagus cuniculus, UniProt P34976)
Experiment: Evaluation of Angiotensin II antagonistic activity by displacement of [125I]-Sar Ile-AII at the rabbit aorta Angiotensin II receptor, type 1
Format: tissue-based
Method in brief: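 Rabbit aorta membranes, run without BSA. Competition against [¹²⁵I]Sar¹Ile⁸-AII, in duplicate tubes. Some values are means of two or more separate assays. Standard error is estimated at <30% of the mean.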

`CCCc1[nH]nc(C(=O)O)c1Cc1ccc(-c2ccccc2-c2nnn[nH]2)cc1` showed a pIC50 of 8.44.

pIC50: −log10 of the molar value.
